Laboratory results: paper PMC10388794 (Journal of Enzyme Inhibition and Medicinal Chemistry, 2023)

The chains behind the UniProt entries cited, without tags or fusion partners. Residues count along the entry.
UniProt P06276, 29-602: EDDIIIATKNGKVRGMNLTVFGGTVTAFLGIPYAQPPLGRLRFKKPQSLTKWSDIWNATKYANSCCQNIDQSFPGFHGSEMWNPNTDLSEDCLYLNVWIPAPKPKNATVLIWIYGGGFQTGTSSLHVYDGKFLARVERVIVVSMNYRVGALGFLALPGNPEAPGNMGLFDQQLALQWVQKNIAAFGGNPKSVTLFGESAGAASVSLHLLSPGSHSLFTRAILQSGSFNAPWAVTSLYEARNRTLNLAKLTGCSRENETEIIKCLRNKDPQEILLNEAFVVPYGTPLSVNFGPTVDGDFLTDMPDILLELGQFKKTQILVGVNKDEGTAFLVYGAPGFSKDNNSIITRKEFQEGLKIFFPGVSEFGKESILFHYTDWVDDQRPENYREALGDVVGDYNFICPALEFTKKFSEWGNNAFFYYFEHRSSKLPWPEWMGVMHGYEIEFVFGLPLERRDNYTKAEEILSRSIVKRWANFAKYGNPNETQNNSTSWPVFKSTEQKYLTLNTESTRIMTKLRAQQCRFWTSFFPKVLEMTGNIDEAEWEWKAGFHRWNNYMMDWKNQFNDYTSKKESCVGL

Target: hBuChE from human serum (Homo sapiens, UniProt P06276)
Assay: hBuChE inhibition assay
Assay type: biochemical

CCN(C)C(=O)Oc1cccc([C@H](C)N(C)C)c1 [Rivastigmine]
IC50: 6.18 ± 1.05 µM
